The text below walks through data of publication PMC11594144.

Holding throughout (assay): AUC
The target in test [1] is Vip3Aa64 activated toxin (trypsin-digested) F229Y (Bacillus thuringiensis).
In test [2] the target is Vip3Aa64 activated toxin (trypsin-digested) E168C (Bacillus thuringiensis).
Test [3] concerns the target Vip3Aa64 activated toxin (trypsin-digested) T167C (Bacillus thuringiensis).
Test [4] deals with Vip3Aa64 activated toxin (trypsin-digested) N242C (Bacillus thuringiensis).
Test [5] has as its target Vip3Aa64 activated toxin (trypsin-digested) E168C:N242C (Bacillus thuringiensis).

For the substance “Vip3Aa64 activated toxin (trypsin-digested) F229Y (complex)”, the stoichiometry N in test [1] turned out to be 4. Regarding “Vip3Aa64 activated toxin (trypsin-digested) E168C (complex)”, the stoichiometry N in test [2] is 4. In test [3], “Vip3Aa64 activated toxin (trypsin-digested) T167C (complex)” gave a stoichiometry N of 4. In test [4], “Vip3Aa64 activated toxin (trypsin-digested) N242C (complex)” had a stoichiometry N of 4. In turn, “Vip3Aa64 activated toxin (trypsin-digested) E168C:N242C (complex)” displayed a stoichiometry N in test [5] of 4.

In general, stoichiometry N refers to a count of units in the complex or per binding partner.
